Assay: Solubility in water
Format: physicochemical

Substance	solubility in water
Calcium Fluorophosphate	soluble in water
Calcium Phosphate Monobasic	soluble in water
